# According to PubChem BioAssay AID1565 (Sanford-Burnham Center for Chemical Genomics, 2009):
# Chains of the proteins cited; added tags and fusions are not shown. Lines headed by an entry give the natural chain unless they say otherwise; changes in a name come on top.
# UniProt Q8TCT1: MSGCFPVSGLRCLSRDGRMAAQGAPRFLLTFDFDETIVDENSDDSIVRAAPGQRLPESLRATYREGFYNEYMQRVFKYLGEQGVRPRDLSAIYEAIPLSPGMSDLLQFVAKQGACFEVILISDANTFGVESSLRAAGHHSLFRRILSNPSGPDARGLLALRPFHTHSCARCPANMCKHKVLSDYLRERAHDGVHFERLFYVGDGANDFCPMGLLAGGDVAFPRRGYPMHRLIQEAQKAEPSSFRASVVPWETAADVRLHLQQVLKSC
# Values joined by “and” are separate entries in the source; they are usually repeats but may differ in a detail not shown here. Equal values may be shown once. This is a selection; strong and weak results do not stand in their true shares. Active and inactive are the calls of the source. No stated cut-off is given here; in the data, active means inhibition above about 60%; inactive means the rest.
# Biological target: Phosphoethanolamine/phosphocholine phosphatase (Homo sapiens) (UniProt Q8TCT1)
# Assay: PubChem AID 1565
# Settings: recombinant PHOSPHO1, absorbance phosphatase assay; at 13.3 µM; stronger effect = higher value
row,Structure (SMILES),inhibition
1,O=P1(Nc2ncccn2)COc2ccccc2OC1,inactive: -2.7%
2,O=P(Nc1nc2ccccc2s1)(c1ccccc1)c1ccccc1,inactive: 32.7%
3,C[C@H]1OP(=O)(Oc2ccccc2)[C@H](O)[C@H](O)[C@H]1N=[N+]=[N-] (some centres not stated),inactive: 13%
4,CN(C)C1(CNC(=O)c2ccc(Cl)c(S(N)(=O)=O)c2)CCCCC1,inactive: 19.7%
5,O=P(Nc1ccccn1)(c1ccc(Br)cc1)c1ccc(Br)cc1,inactive: 49.6%
6,Nc1ccc([As](=O)(O)c2ccc([N+](=O)[O-])cc2)cc1,inactive: 8.3%
7,C(Cc1nn[nH]n1)Cc1nn[nH]n1,inactive: 4.9%
8,O=C(OC1CN2CCC1CC2)c1cccc(Cl)c1 (configuration not stated),inactive: -41.5%
9,O=[N+]([O-])c1ncn(CCn2cnc([N+](=O)[O-])n2)n1,active: 65.5%
10,CC(=O)NC(SC(=S)N(C)C)C(Cl)(Cl)Cl (configuration not stated),inactive: -15.4%
11,O=[N+]([O-])c1ccc(O)c(/C=N/Nc2ccc([N+](=O)[O-])cc2[N+](=O)[O-])c1,inactive: -44%
12,O=[As](O)(c1ccccc1)c1ccc(O)cc1,inactive: 20.3%
13,c1nnnn1CCn1cnnn1,inactive: -16.2%
14,O=P(Nc1nccs1)(c1ccccc1)c1ccccc1,inactive: 15.7%
15,CC(C)C(=O)NC(Sc1ccccc1)C(Cl)(Cl)Cl (configuration not stated),inactive: 6%
16,CC(C)(C)C(=O)NC(Sc1ccccc1)C(Cl)(Cl)Cl (configuration not stated),inactive: -7.1%
17,O=P1(Nc2nc3ccc(Cl)cc3s2)COc2ccccc2O1 (configuration not stated),inactive: -7.4%
18,CCOc1ccc(C2=NCC(CBr)S2)cc1 (configuration not stated),inactive: -22.6%
19,CC(=O)Nc1ccc([As](=O)(O)O)c(O)c1,inactive: 24.6%
20,CC(=O)Nc1ccc(Oc2c([N+](=O)[O-])cc([N+](=O)[O-])cc2[N+](=O)[O-])cc1,inactive: 8.2%
21,C[C@@H]1C=CCP(=O)(Oc2ccccc2)O1 (some centres not stated),inactive: 17.5%
22,C[C@H]1OP(=O)(Oc2ccccc2)C[C@@H]2O[C@@H]21 (some centres not stated),inactive: 13%
23,O=C(NC1CCS(=O)(=O)C1)NP(=S)(Oc1ccccc1)Oc1ccccc1 (configuration not stated),inactive: -5.9%
24,CCNC(=S)/N=C(\N)N[N+](=O)[O-],inactive: 28.7%

row,Structure (SMILES),inhibition
1,c1ccc(-c2nn[nH]n2)c(-c2nn[nH]n2)c1,inactive: -7.2%
2,CCOC(=O)NC(Sc1ccccc1)C(Cl)(Cl)Cl (configuration not stated),inactive: 26.7%
3,Cc1ccc(NP(=O)(Oc2cccc(C)c2)Oc2cccc(C)c2)nc1,inactive: 37.1%
4,Cc1ccccc1OP(=O)(Nc1ccccn1)Oc1ccccc1C,inactive: -7%
5,CN(C)C(=O)Oc1noc2ccccc12,inactive: 36.4%
6,O=c1c2cc([N+](=O)[O-])ccc2[nH]c2c([N+](=O)[O-])cc([N+](=O)[O-])cc12,inactive: -39.1%
7,COC(=O)c1cc2c(s1)N=C(c1ccccc1)N(C)P2(=O)N1CCOCC1 (configuration not stated),inactive: -23.1%
8,Cc1ccc(OP(=O)(Nc2ccccn2)Oc2ccc(C)cc2)cc1,inactive: 21.9%
9,CC(=O)NC(SC(=S)N(CC(C)C)CC(C)C)C(Cl)(Cl)Cl (configuration not stated),inactive: -2.6%
10,O=C(OC1CN2CCC1CC2)c1ccccc1 (configuration not stated),inactive: 14.1%
11,CCC(=O)N1C2C3N(C(=O)CC)C1C1N(C(=O)CC)C(C(N1C(=O)CC)N3C(=O)CC)N2C(=O)CC,inactive: 54.6%
12,CCOP(=O)(Nc1ccccc1)OCC,inactive: -7.4% and inactive: 18.9%
13,Cc1cc(SC(NC(=O)c2ccc(F)cc2)C(Cl)(Cl)Cl)ncn1 (configuration not stated),inactive: -4.5%
14,Cc1ccc(NP(=O)(Oc2ccccc2F)Oc2ccccc2F)nc1,inactive: 50.9%
15,O=C(O)c1ccccc1[As](=O)(O)O,inactive: 25.4%
16,CC(=O)Nc1ccc([As](=O)(O)O)cc1,inactive: 50.8%
17,O=P(Nc1nc2ccc(Cl)cc2s1)(c1ccccc1)c1ccccc1,inactive: -18.3%
18,CCN(N=Nc1nonc1N)c1nonc1N,inactive: 9.1%
19,Nc1cccc2ccc([As](=O)(O)O)cc12,inactive: -8.5%
20,O=[N+]([O-])c1cc([N+](=O)[O-])c(CCN2CCOCC2)c([N+](=O)[O-])c1,inactive: 32.6%
21,COc1ccccc1OP(=O)(Nc1ccc(C)cn1)Oc1ccccc1OC,inactive: 40.7%
22,Cc1ccc(OP(=O)(Nc2nccs2)Oc2ccc(C)cc2)cc1,inactive: 45.9%
23,Clc1ccc(Cl)c(NC2=NCC(CBr)S2)c1 (configuration not stated),inactive: 17.5%
24,CN1CCCC(OC(=O)C(c2ccccc2)c2ccccc2)C1 (configuration not stated),inactive: -6.8%

row,Structure (SMILES),inhibition
1,NC(=O)c1cc([N+](=O)[O-])cc([N+](=O)[O-])c1N,inactive: 40.5%
2,Cc1ccc(N/C(=N/P(=O)(N2CCOCC2)N2CCOCC2)N2CCOCC2)cc1,inactive: 16.1%
3,CC(C)CC(=O)NC(Sc1ccc(Cl)cc1)C(Cl)(Cl)Cl (configuration not stated),inactive: 35.8%
4,Nc1cc(N)c2nonc2c1[N+](=O)[O-],inactive: 12.9%
5,Oc1ccccc1CNc1ccccn1,inactive: 11.3%
6,Cc1c2non([O-])c-2c(C)[n+](=O)[n+]1[O-],inactive: 4.6%
7,O=C(NC(Sc1ccncn1)C(Cl)(Cl)Cl)c1ccccc1 (configuration not stated),inactive: -14.8%
8,CC(=O)N1C2C3N(C(C)=O)C1C1N(C(C)=O)C(C(N1C(C)=O)N3C(C)=O)N2C(C)=O,inactive: 41.7%
9,O=[N+]([O-])c1cccc2n[nH]nc12,inactive: 4.2%
10,Cc1ccc(NP(=O)(Oc2ccccc2)Oc2ccccc2)nc1,inactive: 31.9%
11,O=[N+]([O-])c1cc([N+](=O)[O-])c(CCNc2ccccc2)c([N+](=O)[O-])c1,inactive: -10%
12,CCc1nc2c(n1)c1c(non1O)c1c2no[n+]1[O-],inactive: 11.1%
13,COc1ccc(C2=NCC(CBr)S2)cc1 (configuration not stated),inactive: 24.1%
14,CC(C)=N/N=C(\N)N[N+](=O)[O-],inactive: 20.3%
15,CN(C)C(=O)OCCc1n(C)cc[n+]1C,inactive: -15.9%
16,CC1CCN(C(=O)Oc2c(Cl)cc(Cl)c3cccnc23)CC1,inactive: -9.3%
17,Nc1ccc([As](=O)(O)c2ccc(N)cc2)cc1,inactive: 29%
18,C[N+]1=C2C=CC=CC=C2SC12C([N+](=O)[O-])=CC([N+](=O)[O-])=C[C-]2[N+](=O)[O-] (configuration not stated),inactive: -92.9%
19,CCN(/C(=N/P(=O)(N1CCOCC1)N1CCOCC1)N1CCOCC1)c1ccc(OC)cc1,inactive: -11.6%
20,O=C(Nc1cc([As](=O)(O)O)ccc1O)c1ccccc1,inactive: 29.8%
21,O=[N+]([O-])c1cccc(NC2=NCC(CBr)S2)c1 (configuration not stated),inactive: -69.4%
22,O=C(O)CNc1ccc([As](=O)(O)O)cc1,inactive: 32.7%
23,CC(C)(C)C(=O)NC(Sc1ccncn1)C(Cl)(Cl)Cl (configuration not stated),inactive: -151%
24,O=[N+]([O-])c1ncn(CCn2ncnc2[N+](=O)[O-])n1,inactive: 8%
